Positions count from the first letter of the chain named. Numbers in names are those of the source.
B1: DrABD300 mutant K238C (domain or fragment)
chain: GSEEHRRCQQSLEAEEAKRRLKEQSIFGDQRDEEEESQMKKSESEVEEAAAIIAQRPDNPREFFRQQERV
B2: DrABD300 mutant K248C (domain or fragment)
chain: B1 chain with C8K, K18C
B3: DrABD300 mutant K252C (domain or fragment)
chain: B1 chain with C8K, K22C
B4: DrABD300 mutant K270C (domain or fragment)
chain: B1 chain with C8K, K40C
B5: DrABD300 mutant K271C (domain or fragment)
chain: B1 chain with C8K, K41C
B6: N-GST fused DrABD (drebrin 233-317) (domain or fragment)
chain: EEHRRKQQSLEAEEAKRRLKEQSIFGDQRDEEEESQMKKSESEVEEAAAIIAQRPDNPREFFRQQERVASASGGSCDAPAPAPFN
B7: N-GST fused DrABD300 (drebrin 233-300) (domain or fragment)
chain: EEHRRKQQSLEAEEAKRRLKEQSIFGDQRDEEEESQMKKSESEVEEAAAIIAQRPDNPREFFRQQERV

How the values were obtained:
[1] = molecular target: Yeast actin mutant D51C/C374S, polymerised (F-actin) (yeast, UniProt P60010 1-375, D51C | C374S); experiment: cross-linking
[2] = molecular target: Rabbit skeletal actin, polymerised (F-actin) (rabbit, UniProt P68135 1-377); experiment: co-sedimentation

Binder | binding result [1] | Kd [2] [µM] | stoichiometry N [2] [actin protomers per DrABD]
B1 | binds | – | –
B2 | binds | – | –
B3 | binds | – | –
B4 | binds | – | –
B5 | binds | – | –
B6 | – | 6.6 ± 0.4 | 1.6
B7 | – | 7.6 ± 0.6 | 1.6
